Patent US8895282B2, “Use of a substance for manufacturing of a medicament for treatment of common cold” (Tanomed AB, priority 2008, dated 2014)

Experiments:
WI 38 cells [1] = assay: Toxic effect on WI 38 cells, control wells (Experiment 2)
Description: Virus concentration=dil 2. Incubation during 30 min in heater keeping 37° C. After 30 min the effect of the hydrogen peroxide is aborted with the addition of 0.1 ml catalase solution into the vial (=1 kU/ml). • 0.7 ml 5% glucose solution+0.1 ml dil 1 of RV7 (=a7) or RV8 (=a8)+0.1 ml of the hydrogen peroxide solution (=final concentration in the vial=[…]). Incubation and abortion of the hydrogen peroxide effect similar as in a).
After the addition of catalase, samples are transferred to a 96-well plate with flat bottom according to table 3.

WI 38 cells [2] = assay: Toxic effect on WI 38 cells, control wells (Experiment 1)
Description: Cell culture: Human lung cell fibroblasts (WI 38, ATCC-CCL-75) was used for cytopathic effect detection. 10-fold serial dilutions had been made from the concentrated viral suspension. […] Then the media was changed to RPMI with 2% of fetal calf serum, which was preserved during the assay. The cells were incubated in CO2enriched air at 37° C. During the experiments a cell culture of 17th-18^thpassage was used.
In table 1 the content of each of the 10 vials (Eppendorf) is listed. The vials were incubated in a heater keeping a stable temperature of 37° C. 1000 U of catalase was added after 15, 30 and 60 min of incubation. 2×50 μl from each vial was transferred to duplicate cell wells (a 96-well plate).

[3] = system: human lung fibroblast cells (WI 38); assay: Leniency to human lung fibroblast cells (WI 38), laboratory studies; type: cell-based

Substance | Effect on WI 38 cells after 2 days (WI 38 cells [1]; wells 50 U GO/ml) | Effect on WI 38 cells after 10 days (WI 38 cells [1]; wells 50 U GO/ml) | Effect on WI 38 cells after 2 days (WI 38 cells [1]; wells 50 UGO, PBS) | Effect on WI 38 cells after 10 days (WI 38 cells [1]; wells 50 UGO, PBS) | Day 3 (toxic effect on WI 38 cells, control) (WI 38 cells [2]; GO 40 U/ml, no virus) | Day 5 (toxic effect on WI 38 cells, control) (WI 38 cells [2]; GO 40 U/ml, no virus) | Day 7 (toxic effect on WI 38 cells, control) (WI 38 cells [2]; GO 40 U/ml, no virus) | Toxic effect on WI 38 cells (WI 38 cells [2]; Glucose Oxidase) | Leniency to human lung fibroblast cells (WI 38) [3]
Glucose oxidase [GO] | tox | tox | tox | tox | (tox) | (tox) | (tox) | slight toxic effect | –
galactose oxidase | – | – | – | – | – | – | – | – | very lenient
